Data: patent EP4834897A1, “COMPOUNDS WITH TWO AZAHETEROCYCLES SUBSTITUTED ISOINDOLINONE SKELETON AND USES THEREOF” (dated 2026)

By UniProt entry, the sequences of proteins in these tests, tags left out.
UniProt P15170, whole entry: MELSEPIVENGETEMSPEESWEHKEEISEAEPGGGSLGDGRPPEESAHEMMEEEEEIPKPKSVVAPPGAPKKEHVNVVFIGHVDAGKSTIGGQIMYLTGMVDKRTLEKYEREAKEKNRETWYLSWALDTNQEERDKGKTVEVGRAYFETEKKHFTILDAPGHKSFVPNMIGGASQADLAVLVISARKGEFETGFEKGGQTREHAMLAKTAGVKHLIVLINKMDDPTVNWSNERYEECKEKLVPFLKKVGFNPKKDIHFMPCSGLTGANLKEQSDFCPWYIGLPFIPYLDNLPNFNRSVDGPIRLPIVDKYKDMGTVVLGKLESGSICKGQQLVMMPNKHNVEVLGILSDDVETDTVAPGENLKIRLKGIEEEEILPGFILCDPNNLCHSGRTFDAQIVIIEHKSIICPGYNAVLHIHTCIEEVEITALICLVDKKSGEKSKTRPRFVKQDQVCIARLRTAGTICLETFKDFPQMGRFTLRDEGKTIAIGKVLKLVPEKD
UniProt Q96SW2, whole entry: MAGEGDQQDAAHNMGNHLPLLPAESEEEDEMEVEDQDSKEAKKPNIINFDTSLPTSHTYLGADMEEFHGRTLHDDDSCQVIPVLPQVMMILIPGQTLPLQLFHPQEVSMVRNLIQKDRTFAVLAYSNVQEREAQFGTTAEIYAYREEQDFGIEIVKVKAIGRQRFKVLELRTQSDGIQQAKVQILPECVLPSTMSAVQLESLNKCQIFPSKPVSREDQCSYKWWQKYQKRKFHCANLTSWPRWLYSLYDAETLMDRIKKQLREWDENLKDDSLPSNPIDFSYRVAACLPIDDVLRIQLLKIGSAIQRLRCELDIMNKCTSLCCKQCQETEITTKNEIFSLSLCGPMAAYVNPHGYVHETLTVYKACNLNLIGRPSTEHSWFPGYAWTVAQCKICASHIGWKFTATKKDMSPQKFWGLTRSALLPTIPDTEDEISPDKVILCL
UniProt Q13422, whole entry: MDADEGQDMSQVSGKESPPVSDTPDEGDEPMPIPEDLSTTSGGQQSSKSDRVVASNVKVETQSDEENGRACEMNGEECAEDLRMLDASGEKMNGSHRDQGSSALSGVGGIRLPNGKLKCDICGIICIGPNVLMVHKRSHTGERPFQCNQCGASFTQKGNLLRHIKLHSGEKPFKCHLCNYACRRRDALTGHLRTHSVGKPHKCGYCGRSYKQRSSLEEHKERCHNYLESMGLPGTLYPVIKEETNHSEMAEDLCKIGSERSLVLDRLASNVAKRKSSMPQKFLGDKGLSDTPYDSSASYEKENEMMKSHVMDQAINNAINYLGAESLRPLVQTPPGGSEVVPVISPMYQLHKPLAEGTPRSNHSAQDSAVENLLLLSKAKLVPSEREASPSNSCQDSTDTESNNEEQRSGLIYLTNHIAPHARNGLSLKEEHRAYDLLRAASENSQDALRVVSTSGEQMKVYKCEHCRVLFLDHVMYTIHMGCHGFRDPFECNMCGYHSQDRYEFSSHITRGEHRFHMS
UniProt Q9UKS7, whole entry: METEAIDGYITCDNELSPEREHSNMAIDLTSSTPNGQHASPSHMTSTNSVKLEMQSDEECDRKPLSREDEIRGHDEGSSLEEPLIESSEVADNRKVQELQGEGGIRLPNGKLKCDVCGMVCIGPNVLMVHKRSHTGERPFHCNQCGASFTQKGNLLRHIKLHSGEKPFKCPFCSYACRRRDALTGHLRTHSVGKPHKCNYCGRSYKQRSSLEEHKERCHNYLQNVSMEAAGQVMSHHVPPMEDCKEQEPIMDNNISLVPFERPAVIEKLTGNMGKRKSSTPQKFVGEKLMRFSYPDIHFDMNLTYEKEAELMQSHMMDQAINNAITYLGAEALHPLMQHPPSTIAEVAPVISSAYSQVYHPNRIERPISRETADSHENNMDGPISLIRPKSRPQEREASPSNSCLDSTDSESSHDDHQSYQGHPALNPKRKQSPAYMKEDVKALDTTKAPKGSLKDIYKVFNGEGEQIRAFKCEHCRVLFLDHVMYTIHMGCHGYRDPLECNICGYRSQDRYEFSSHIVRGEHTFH
UniProt Q9UKT9, whole entry: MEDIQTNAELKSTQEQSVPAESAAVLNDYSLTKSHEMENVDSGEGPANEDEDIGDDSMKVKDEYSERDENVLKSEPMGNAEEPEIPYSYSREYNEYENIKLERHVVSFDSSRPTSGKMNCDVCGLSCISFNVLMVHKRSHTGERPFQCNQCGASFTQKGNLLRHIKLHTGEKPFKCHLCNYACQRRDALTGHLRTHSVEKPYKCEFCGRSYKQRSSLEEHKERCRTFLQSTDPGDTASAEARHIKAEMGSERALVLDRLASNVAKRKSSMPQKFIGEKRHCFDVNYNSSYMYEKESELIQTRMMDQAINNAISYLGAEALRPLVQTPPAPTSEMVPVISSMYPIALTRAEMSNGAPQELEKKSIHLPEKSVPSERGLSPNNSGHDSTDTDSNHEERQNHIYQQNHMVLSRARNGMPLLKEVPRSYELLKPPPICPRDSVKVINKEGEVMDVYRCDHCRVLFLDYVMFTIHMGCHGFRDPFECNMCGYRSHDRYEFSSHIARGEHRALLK
UniProt P30291, whole entry: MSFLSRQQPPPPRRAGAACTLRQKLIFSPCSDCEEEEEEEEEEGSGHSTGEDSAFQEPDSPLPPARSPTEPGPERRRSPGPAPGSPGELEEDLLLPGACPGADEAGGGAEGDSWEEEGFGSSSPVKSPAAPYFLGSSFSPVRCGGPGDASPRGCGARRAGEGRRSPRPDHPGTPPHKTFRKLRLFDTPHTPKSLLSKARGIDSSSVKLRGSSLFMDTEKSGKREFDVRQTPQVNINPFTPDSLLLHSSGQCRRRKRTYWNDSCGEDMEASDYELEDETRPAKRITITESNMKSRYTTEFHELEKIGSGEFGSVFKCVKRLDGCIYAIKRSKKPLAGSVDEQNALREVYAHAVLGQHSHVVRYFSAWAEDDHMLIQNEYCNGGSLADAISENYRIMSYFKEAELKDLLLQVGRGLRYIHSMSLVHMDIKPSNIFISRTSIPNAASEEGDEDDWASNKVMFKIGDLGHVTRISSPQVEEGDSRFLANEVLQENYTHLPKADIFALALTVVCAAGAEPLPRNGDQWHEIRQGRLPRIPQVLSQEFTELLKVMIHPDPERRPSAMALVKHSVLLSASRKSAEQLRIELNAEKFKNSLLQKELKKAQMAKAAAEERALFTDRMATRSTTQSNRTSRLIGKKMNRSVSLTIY
UniProt P48729, whole entry: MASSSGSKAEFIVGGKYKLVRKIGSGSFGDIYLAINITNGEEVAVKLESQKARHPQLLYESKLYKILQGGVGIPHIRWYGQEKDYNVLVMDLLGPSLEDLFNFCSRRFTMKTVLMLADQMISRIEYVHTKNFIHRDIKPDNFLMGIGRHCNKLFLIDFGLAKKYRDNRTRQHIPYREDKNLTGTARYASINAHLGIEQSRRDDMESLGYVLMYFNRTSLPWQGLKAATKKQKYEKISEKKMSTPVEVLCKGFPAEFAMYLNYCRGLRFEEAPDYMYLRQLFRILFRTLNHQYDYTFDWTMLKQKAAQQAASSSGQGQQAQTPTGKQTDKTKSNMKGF
UniProt Q16531, whole entry partner: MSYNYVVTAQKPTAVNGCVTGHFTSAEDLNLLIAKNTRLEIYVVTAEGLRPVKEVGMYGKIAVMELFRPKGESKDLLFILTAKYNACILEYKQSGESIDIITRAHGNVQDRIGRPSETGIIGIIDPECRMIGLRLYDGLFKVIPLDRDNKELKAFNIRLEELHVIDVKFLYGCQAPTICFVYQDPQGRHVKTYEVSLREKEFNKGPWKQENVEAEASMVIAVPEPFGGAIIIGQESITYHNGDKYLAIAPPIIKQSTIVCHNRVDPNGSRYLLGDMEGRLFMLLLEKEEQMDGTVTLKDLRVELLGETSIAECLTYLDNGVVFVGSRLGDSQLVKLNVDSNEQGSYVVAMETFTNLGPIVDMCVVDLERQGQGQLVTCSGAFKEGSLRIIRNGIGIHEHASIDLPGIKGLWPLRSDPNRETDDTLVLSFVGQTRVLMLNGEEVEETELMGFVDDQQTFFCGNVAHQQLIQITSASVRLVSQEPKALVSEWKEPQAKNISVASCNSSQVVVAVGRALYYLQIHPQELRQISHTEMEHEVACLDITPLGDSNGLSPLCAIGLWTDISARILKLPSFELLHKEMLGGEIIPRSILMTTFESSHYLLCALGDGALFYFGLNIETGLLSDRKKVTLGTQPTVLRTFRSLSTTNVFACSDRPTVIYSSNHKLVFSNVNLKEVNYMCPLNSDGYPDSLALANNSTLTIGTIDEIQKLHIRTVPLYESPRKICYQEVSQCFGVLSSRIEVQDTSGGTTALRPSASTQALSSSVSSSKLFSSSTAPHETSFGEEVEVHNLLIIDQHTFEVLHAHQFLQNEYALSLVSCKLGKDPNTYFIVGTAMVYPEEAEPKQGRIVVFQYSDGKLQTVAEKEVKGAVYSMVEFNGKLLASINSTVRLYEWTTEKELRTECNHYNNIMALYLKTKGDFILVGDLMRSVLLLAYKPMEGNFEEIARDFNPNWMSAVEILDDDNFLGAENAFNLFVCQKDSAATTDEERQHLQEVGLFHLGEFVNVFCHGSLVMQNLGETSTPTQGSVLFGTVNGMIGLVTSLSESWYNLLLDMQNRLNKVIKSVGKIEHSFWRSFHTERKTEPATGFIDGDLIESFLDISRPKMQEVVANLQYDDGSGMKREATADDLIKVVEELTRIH

The compounds below were run against GSPT1 (Homo sapiens, UniProt P15170+Q96SW2) (assay: Western blot assay of substrate protein degradation in hPBMCs). Settings: 24 hours treatment, compounds at 50 nM and 500 nM (concentration behind the class not stated).

| SMILES | substrate protein remaining % (GSPT1) |
| --- | --- |
| O=C1CCC(N2Cc3c(C(=O)N4CCC(N5CCC(c6noc7cc(F)ccc67)CC5)C(F)(F)C4)cccc3C2=O)C(=O)N1 (stereo not shown) | A (0% ≤ substrate protein remaining % ≤ 80%) |
| O=C1CCC(N2Cc3c(CN4CCC(N5CCN(c6cccc(Cl)c6Cl)CC5)CC4)cccc3C2=S)C(=O)N1 (stereo not shown) | A (0% ≤ substrate protein remaining % ≤ 80%) |
| O=C1CCC(N2Cc3cccc(C(=O)N4CCC(N5CCN(c6noc7cc(F)ccc67)CC5)CC4)c3C2=O)C(=O)N1 (stereo not shown) | A (0% ≤ substrate protein remaining % ≤ 80%) |
| O=C1CCC(N2Cc3c(CN4CCC(N5CCN(c6noc7cc(F)ccc67)CC5)C(F)(F)C4)cccc3C2=S)C(=O)N1 (stereo not shown) | A (0% ≤ substrate protein remaining % ≤ 80%) |

What follows are compounds tested against IKZF1 (Homo sapiens, UniProt Q13422+Q96SW2) in the same assay as above. Settings: 24 hours treatment, compounds at 50 nM and 500 nM (concentration behind the class not stated).

| SMILES | substrate protein remaining % (IKZF 1) |
| --- | --- |
| O=C1CCC(N2Cc3c(C(=O)N4CCC(N5CCC(c6noc7cc(F)ccc67)CC5)C(F)(F)C4)cccc3C2=O)C(=O)N1 (stereo not shown) | B (80%< substrate protein remaining %≤ 100%) |
| O=C1CCC(N2Cc3c(CN4CCC(N5CCN(c6cccc(Cl)c6Cl)CC5)CC4)cccc3C2=S)C(=O)N1 (stereo not shown) | B (80%< substrate protein remaining %≤ 100%) |
| O=C1CCC(N2Cc3cccc(C(=O)N4CCC(N5CCN(c6noc7cc(F)ccc67)CC5)CC4)c3C2=O)C(=O)N1 (stereo not shown) | B (80%< substrate protein remaining %≤ 100%) |
| O=C1CCC(N2Cc3c(CN4CCC(N5CCN(c6noc7cc(F)ccc67)CC5)C(F)(F)C4)cccc3C2=S)C(=O)N1 (stereo not shown) | B (80%< substrate protein remaining %≤ 100%) |

These compounds were tested against IKZF2 (Homo sapiens, UniProt Q96SW2+Q9UKS7) in the same assay as above. Settings: 24 hours treatment, compounds at 50 nM and 500 nM (concentration behind the class not stated).

| SMILES | substrate protein remaining % (IKZF2) |
| --- | --- |
| O=C1CCC(N2Cc3c(C(=O)N4CCC(N5CCC(c6noc7cc(F)ccc67)CC5)C(F)(F)C4)cccc3C2=O)C(=O)N1 (stereo not shown) | A (0% ≤ substrate protein remaining % ≤ 80%) |
| O=C1CCC(N2Cc3c(CN4CCC(N5CCN(c6cccc(Cl)c6Cl)CC5)CC4)cccc3C2=S)C(=O)N1 (stereo not shown) | A (0% ≤ substrate protein remaining % ≤ 80%) |
| O=C1CCC(N2Cc3cccc(C(=O)N4CCC(N5CCN(c6noc7cc(F)ccc67)CC5)CC4)c3C2=O)C(=O)N1 (stereo not shown) | B (80%< substrate protein remaining %≤ 100%) |
| O=C1CCC(N2Cc3c(CN4CCC(N5CCN(c6noc7cc(F)ccc67)CC5)C(F)(F)C4)cccc3C2=S)C(=O)N1 (stereo not shown) | B (80%< substrate protein remaining %≤ 100%) |

What follows are compounds tested against IKZF3 (Homo sapiens, UniProt Q96SW2+Q9UKT9) in the same assay as above. Settings: 24 hours treatment, compounds at 50 nM and 500 nM (concentration behind the class not stated).

| SMILES | substrate protein remaining % (IKZF3) |
| --- | --- |
| O=C1CCC(N2Cc3c(C(=O)N4CCC(N5CCC(c6noc7cc(F)ccc67)CC5)C(F)(F)C4)cccc3C2=O)C(=O)N1 (stereo not shown) | B (80%< substrate protein remaining %≤ 100%) |
| O=C1CCC(N2Cc3c(CN4CCC(N5CCN(c6cccc(Cl)c6Cl)CC5)CC4)cccc3C2=S)C(=O)N1 (stereo not shown) | B (80%< substrate protein remaining %≤ 100%) |
| O=C1CCC(N2Cc3cccc(C(=O)N4CCC(N5CCN(c6noc7cc(F)ccc67)CC5)CC4)c3C2=O)C(=O)N1 (stereo not shown) | B (80%< substrate protein remaining %≤ 100%) |
| O=C1CCC(N2Cc3c(CN4CCC(N5CCN(c6noc7cc(F)ccc67)CC5)C(F)(F)C4)cccc3C2=S)C(=O)N1 (stereo not shown) | B (80%< substrate protein remaining %≤ 100%) |

The compounds below were run against WEE1 (Homo sapiens, UniProt P30291+Q96SW2) in the same assay as above. Settings: 24 hours treatment, compounds at 50 nM and 500 nM (concentration behind the class not stated).

| SMILES | substrate protein remaining % (WEE1) |
| --- | --- |
| O=C1CCC(N2Cc3c(C(=O)N4CCC(N5CCC(c6noc7cc(F)ccc67)CC5)C(F)(F)C4)cccc3C2=O)C(=O)N1 (stereo not shown) | B (80%< substrate protein remaining %≤ 100%) |
| O=C1CCC(N2Cc3c(CN4CCC(N5CCN(c6cccc(Cl)c6Cl)CC5)CC4)cccc3C2=S)C(=O)N1 (stereo not shown) | B (80%< substrate protein remaining %≤ 100%) |
| O=C1CCC(N2Cc3cccc(C(=O)N4CCC(N5CCN(c6noc7cc(F)ccc67)CC5)CC4)c3C2=O)C(=O)N1 (stereo not shown) | B (80%< substrate protein remaining %≤ 100%) |
| O=C1CCC(N2Cc3c(CN4CCC(N5CCN(c6noc7cc(F)ccc67)CC5)C(F)(F)C4)cccc3C2=S)C(=O)N1 (stereo not shown) | A (0% ≤ substrate protein remaining % ≤ 80%) |

These compounds were tested against CK1α (Homo sapiens, UniProt P48729+Q96SW2) in the same assay as above. Settings: 24 hours treatment, compounds at 50 nM and 500 nM (concentration behind the class not stated).

| SMILES | substrate protein remaining % (CK1a) |
| --- | --- |
| O=C1CCC(N2Cc3c(C(=O)N4CCC(N5CCC(c6noc7cc(F)ccc67)CC5)C(F)(F)C4)cccc3C2=O)C(=O)N1 (stereo not shown) | A (0% ≤ substrate protein remaining % ≤ 80%) |
| O=C1CCC(N2Cc3c(CN4CCC(N5CCN(c6cccc(Cl)c6Cl)CC5)CC4)cccc3C2=S)C(=O)N1 (stereo not shown) | A (0% ≤ substrate protein remaining % ≤ 80%) |
| O=C1CCC(N2Cc3cccc(C(=O)N4CCC(N5CCN(c6noc7cc(F)ccc67)CC5)CC4)c3C2=O)C(=O)N1 (stereo not shown) | B (80%< substrate protein remaining %≤ 100%) |
| O=C1CCC(N2Cc3c(CN4CCC(N5CCN(c6noc7cc(F)ccc67)CC5)C(F)(F)C4)cccc3C2=S)C(=O)N1 (stereo not shown) | B (80%< substrate protein remaining %≤ 100%) |

What follows are compounds tested against CRBN (Homo sapiens, UniProt Q96SW2) (assay: CRBN binding affinity by HTRF (CEREBLON BINDING kit)). Settings: CRBN binding, HTRF, compound at 0.5 µM.

| SMILES | Inhibition Rate at 0.5 µM (%) |
| --- | --- |
| O=C1CCC(N2Cc3c(C(=O)N4CCC(N5CCC(c6noc7cc(F)ccc67)CC5)C(F)(F)C4)cccc3C2=O)C(=O)N1 (stereo not shown) | a6 (60% < a6 ≤ 70%) |
| O=C1CCC(N2Cc3c(CN4CCC(N5CCN(c6noc7cc(F)ccc67)CC5)C(F)(F)C4)cccc3C2=S)C(=O)N1 (stereo not shown) | a5 (53% < a5 ≤ 60%) |

Same assay, conditions: CRBN binding, HTRF, compound at 2 µM

| SMILES | Inhibition Rate at 2 µM (%) |
| --- | --- |
| O=C1CCC(N2Cc3c(C(=O)N4CCC(N5CCC(c6noc7cc(F)ccc67)CC5)C(F)(F)C4)cccc3C2=O)C(=O)N1 (stereo not shown) | a8 (80% < a8 ≤100%) |
| O=C1CCC(N2Cc3c(CN4CCC(N5CCN(c6noc7cc(F)ccc67)CC5)C(F)(F)C4)cccc3C2=S)C(=O)N1 (stereo not shown) | a8 (80% < a8 ≤100%) |

These compounds were tested on Human myeloid monocytic leukemia cell (MV-4-11) (assay: Tumor cell proliferation inhibition (cell viability assay)). Settings: MV-4-11 cells; 10 nM; 96 hours.

| SMILES | Inhibition Rate at 10 nM (%) |
| --- | --- |
| O=C1CCC(N2Cc3c(C(=O)N4CCC(N5CCC(c6noc7cc(F)ccc67)CC5)C(F)(F)C4)cccc3C2=O)C(=O)N1 (stereo not shown) | 1a8 (60% ≤ 1a8 < 70%) |
| O=C1CCC(N2Cc3c(CN4CCC(N5CCN(c6cccc(Cl)c6Cl)CC5)CC4)cccc3C2=S)C(=O)N1 (stereo not shown) | 1a3 (10% ≤ 1a3 < 20%) |
| O=C1CCC(N2Cc3cccc(C(=O)N4CCC(N5CCN(c6noc7cc(F)ccc67)CC5)CC4)c3C2=O)C(=O)N1 (stereo not shown) | 1a8 (60% ≤ 1a8 < 70%) |

Same assay, conditions: MV-4-11 cells; 500 nM; 96 hours

| SMILES | Inhibition Rate at 500 nM (%) |
| --- | --- |
| O=C1CCC(N2Cc3c(C(=O)N4CCC(N5CCC(c6noc7cc(F)ccc67)CC5)C(F)(F)C4)cccc3C2=O)C(=O)N1 (stereo not shown) | 1a10 (80% ≤ 1a10 < 100%) |
| O=C1CCC(N2Cc3c(CN4CCC(N5CCN(c6cccc(Cl)c6Cl)CC5)CC4)cccc3C2=S)C(=O)N1 (stereo not shown) | 1a7 (50% ≤ 1a7 < 60%) |
| O=C1CCC(N2Cc3cccc(C(=O)N4CCC(N5CCN(c6noc7cc(F)ccc67)CC5)CC4)c3C2=O)C(=O)N1 (stereo not shown) | 1a8 (60% ≤ 1a8 < 70%) |
